Experimental data taken from patent US12276657B2, “Detection of PAR in the CSF of patients with Parkinson's disease” (The Johns Hopkins University, priority 2017, dated 2025).

Test system: α-syn PFF injected mice
Conditions: ABT-888 diet 125 mg/kg
[1] = 6 months after intrastriatal α-syn PFF
[2] = 180 days after α-syn PFF injection

SMILES: C[C@]1(c2nc3c(C(N)=O)cccc3[nH]2)CCCN1 [ABT-888, veliparib]
- TH and DAT levels, western blot [1]: the reduction in TH and DAT levels is prevented
- striatal DA and its metabolites, HPLC [1]: but not PARP-1 knockout mice or ABT-888 treated mice
- forelimb plus hindlimb and forelimb grip strength [2]: but not in PARP-1 knockout or ABT-888 treated WT mice
- pole test [2]: no deficits
- loss of DA neurons versus control diet (WT mice, 6 months after intrastriatal α-syn PFF): significantly less loss of DA neurons
- α-syn pathology (western blotting, p-α-syn immunostaining) (after intrastriatal α-syn PFF): markedly reduced
- PARP activation / PAR levels in brain (single intrastriatal α-syn PFF 5 μg): reduces the formation of α-syn PFF induced increase in PAR levels
